Source: patent US11008286B2, “Amino mercaptan compound and preparation method therefor and use thereof in protection against radiation” (Institute of Radiation Medicine Chinese Academy of Medical …, priority 2016, dated 2021)
Counter-ions that a name gives are not always drawn. Where a SMILES comes first, the peptide text is derived from it. [ ]: non-standard residue; d: D form.

System: C57 male mice
Settings: 400 mpk and 800 mpk IP, irradiation 90 min after administration
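Note: mice aged 8-10 weeks, weighing 20-22 g, with deaths logged and survival rate computed on day 30.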

Compound: NC(=O)[C@H](CS)NC(=O)[C@H](N)CS [Example 17, (S)-2-amino-N—((R)-1-amino-3-mercapto-1-oxopropan-2-yl)-3-mercaptopropanamide trifluoroacetate] (H-[dC]-Cys-NH2)
- toxic reactions after intraperitoneal injection: muscle tremors and other toxic reactions were observed
